# Yeast mating assay 1: variants of the scFv Ab-14

All variants were tested on one target, the spike HR2 peptide PDVDLGDISGINAS (SARS-CoV-2).

Parent scFv Ab-14: VH joined to VL by three GGGGS repeats. Changes lie in the light chain CDRs alone.
VH: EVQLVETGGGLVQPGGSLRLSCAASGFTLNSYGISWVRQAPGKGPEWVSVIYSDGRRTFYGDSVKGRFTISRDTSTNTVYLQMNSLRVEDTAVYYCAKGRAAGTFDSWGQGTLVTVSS
VL: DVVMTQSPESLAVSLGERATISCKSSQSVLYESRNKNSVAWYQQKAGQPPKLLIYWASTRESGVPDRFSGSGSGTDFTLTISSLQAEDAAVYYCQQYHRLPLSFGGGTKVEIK

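The parent was found by panning a naive human phage display library on the peptide. AAYL50 was designed without a model: most single CDR substitutions and a random sample of double and triple ones. Affinity was read by AlphaSeq, a pooled yeast mating assay with surface-displayed partners. Binding brings cells together so that they mate, and sequencing counts the barcode pairs among the diploids. Each replicate has its own calibration line, from reference interactions of the BCL2 family. The assay was run in three technical replicates.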

The parent's light chain CDRs are KSSQSVLYESRNKNSVA, WASTRES, QQYHRLPLS; each variant's own CDRs replace them letter for letter.
Every variant below is changed at R99 of the VL (sequential numbering).
Values are log10 of the apparent Kd in nM; lower means stronger binding.
A mean of the replicates is given; it leaves out those without a signal.
Where no diploid with the target was found in any replicate, the entry reads "nd": below detection, most likely a poor binder, though not proof of it.

Variant KSSQSVLYESRNYNSVA, WASTRES, QQYHCLPLS gave 4.09 (3 of 3 replicates; controls 0 of 9).
Variant KSSQSPLYESRNKNSVA, WASTRES, QQYHELPLS gave nd (0 of 3 replicates; controls 1 of 9).
Variant KSSQSMLYESRNKNSVA, WASTRES, AQYHELPLS gave 2.09 (3 of 3 replicates; controls 0 of 9).
Variant KSEQSELYESRNKNSVA, WASTRES, QQYHALPLS gave 1.46 (3 of 3 replicates; controls 0 of 9).
Variant PSSQSVLYESRNKNSVA, WASTREA, QQYHALPLS gave nd (0 of 3 replicates; controls 0 of 9).
Variant KSSQSVLYESRFKNSVA, WASTRES, QQKHGLPLS gave 1.61 (3 of 3 replicates; controls 0 of 9).
Variant KSSQSVLYESRNKNSVA, WASTRES, QQYHKLPLS gave 0.72 (3 of 3 replicates; controls 1 of 9).
Variant KSSQSVLYESRKKNSVA, WASTRES, QQLHPLPLS gave 1.37 (3 of 3 replicates; controls 0 of 9).
Variant KSSQSVLYESRNKNSSA, WLSTRES, QQYHYLPLS gave nd (0 of 3 replicates; controls 1 of 9).
Variant KSSQSVAYESRNKNSVA, WASTREC, QQYHHLPLS gave 1.84 (3 of 3 replicates; controls 2 of 9).
Variant KSSQSVLYESRNMNSVA, WCSTRES, QQYHHLPLS gave 1.58 (3 of 3 replicates; controls 1 of 9).
Variant KSSQSVLYESRNKNSVA, WASNRES, VQYHPLPLS gave nd (0 of 3 replicates; controls 0 of 9).
Variant KSSQSVLYESRGKNSVA, WASTREI, QQYHLLPLS gave 1.42 (3 of 3 replicates; controls 0 of 9).
Variant KSSQSVLYESRNKNSVA, WASTRMS, KQYHKLPLS gave 4.94 (1 of 3 replicates; controls 2 of 9).
Variant KSSQSVLYESRAKNSVA, WQSTRES, QQYHHLPLS gave 1.80 (3 of 3 replicates; controls 0 of 9).
Variant KSSQSVLYESRNKNSVA, WASTAES, QQYHSEPLS gave 3.66 (1 of 3 replicates; controls 1 of 9).
Variant KSSQSVLYESRNKNSVA, WAKTQES, QQYHSLPLS gave nd (0 of 3 replicates; controls 0 of 9).
Variant KSSQSVLYESRNKNSVA, WASTRES, QQYHKPPVS gave 4.78 (1 of 3 replicates; controls 2 of 9).
Variant KSSQSVLYESRNPNSVA, WASTREM, QQYHWLPLS gave 3.15 (1 of 3 replicates; controls 0 of 9).
Variant KSSQSVLYESRNKNSVA, AASTRES, QTYHQLPLS gave -0.10 (3 of 3 replicates; controls 7 of 9).
Variant KSSQSVLYESRNKNSVA, WASTRES, QQYHHLPLS gave 3.13 (3 of 3 replicates; controls 5 of 9).
Variant KSSQSVLYESRNKNSVA, WASTRES, QQYHILKLS gave nd (0 of 3 replicates; controls 3 of 9).
Variant KSSQSVLYESRKKNSVA, WASTRES, QQYYNLPLS gave 1.78 (3 of 3 replicates; controls 3 of 9).
Variant KSSQSVLYWSRNKNSVA, WASTRES, CQYHPLPLS gave 4.31 (1 of 3 replicates; controls 0 of 9).
Variant KSSQMVLYESRNKNKVA, WASTRES, QQYHWLPLS gave 1.99 (3 of 3 replicates; controls 3 of 9).
Variant KSSQSVLYLSRNKNSVA, WASTRES, QQYHVHPLS gave 3.27 (3 of 3 replicates; controls 7 of 9).
Variant KSAQSVLYESRNKNSVA, WASTRES, IQYHNLPLS gave 4.47 (2 of 3 replicates; controls 7 of 9).
Variant KSSQSVLYENINKNSVA, WASTRES, QQYHMLPLS gave 0.76 (3 of 3 replicates; controls 1 of 9).
Variant KSSQSVLYESRNKGSVA, WASRRES, QQYHMLPLS gave 2.28 (3 of 3 replicates; controls 0 of 9).
Variant PSSNSVLYESRNKNSVA, WASTRES, QQYHPLPLS gave nd (0 of 3 replicates; controls 2 of 9).
Variant KSSQSPLYESRNKNSQA, WASTRES, QQYHCLPLS gave 3.59 (1 of 3 replicates; controls 1 of 9).
Variant KSSQSVLYNSRNKNSVA, RASTRES, QQYHALPLS gave 1.95 (3 of 3 replicates; controls 5 of 9).
Variant KSSQSVLYESRNKNSVA, WASTRES, QLYHILPVS gave nd (0 of 3 replicates; controls 1 of 9).
Variant KSSQRVLYESRNKNSVA, WASTRES, QQYHALPLC gave 1.82 (3 of 3 replicates; controls 1 of 9).
Variant KSSQSVLYESRNKNSVW, WASTRES, QQIHKLPLS gave 4.56 (1 of 3 replicates; controls 7 of 9).
Variant KSSQSVLYESRNKNSVA, WFNTRES, QQYHCLPLS gave nd (0 of 3 replicates; controls 0 of 9).
Variant KSSQWVLYESRNKNSVA, WASTRES, QQYHILPLS gave 1.54 (3 of 3 replicates; controls 3 of 9).
Variant RSSQSVLAESRNKNSVA, WASTRES, QQYHTLPLS gave 0.72 (3 of 3 replicates; controls 0 of 9).

A selection of 5 entries from above:

CDR-L1,CDR-L2,CDR-L3,"log10 Kd (nM), mean",seen in,signal with controls
KSSQSVLYLSRNKNSVA,WASTRES,QQYHVHPLS,3.27,3/3,7/9
KSSQSVLYESRNKNSVA,WASTRES,QLYHILPVS,nd,0/3,1/9
KSSQSVLYESRNKNSSA,WLSTRES,QQYHYLPLS,nd,0/3,1/9
KSSQSVLYESRNKNSVA,WASTRMS,KQYHKLPLS,4.94,1/3,2/9
KSSQRVLYESRNKNSVA,WASTRES,QQYHALPLC,1.82,3/3,1/9

As a blank, each scFv also met three strains without target: over library AAYL50, 18% of these pairings were detected, typically at 4.19 and seldom below 2.99. The control count says in how many pairings with the empty strains this scFv gave a signal.

Values reported by Engelhart et al. 2022, doi:10.1038/s41597-022-01779-4 (FLAb copy).